{"source": "patent US11007192B2", "about": "“Use of 5-amino-2,3-dihydro-1,4-phthalazinedione in the treatment of chronic progressive multiple sclerosis” (METRIOPHARM AG, priority 2016, dated 2021)", "origin": "cited, not measured here", "test_system": "neuronal damage", "conditions": "higher concentrations in vitro; cited from earlier work", "data": [{"smiles": "Nc1cccc2c(=O)[nH][nH]c(=O)c12.[Na]", "note": "[5-amino-2,3-dihydro-1,4-phthalazinedione sodium salt]", "values": [{"measurement": "apoptosis", "value": "apoptosis was activated"}]}]}
